Experimental data taken from paper PMC11381307 (Frontiers in Pharmacology, 2024).

Amino acid sequences for entries named in this document (tags omitted). A change or cut given only in a name is not applied to a line headed by its entry.
UniProt Q92887: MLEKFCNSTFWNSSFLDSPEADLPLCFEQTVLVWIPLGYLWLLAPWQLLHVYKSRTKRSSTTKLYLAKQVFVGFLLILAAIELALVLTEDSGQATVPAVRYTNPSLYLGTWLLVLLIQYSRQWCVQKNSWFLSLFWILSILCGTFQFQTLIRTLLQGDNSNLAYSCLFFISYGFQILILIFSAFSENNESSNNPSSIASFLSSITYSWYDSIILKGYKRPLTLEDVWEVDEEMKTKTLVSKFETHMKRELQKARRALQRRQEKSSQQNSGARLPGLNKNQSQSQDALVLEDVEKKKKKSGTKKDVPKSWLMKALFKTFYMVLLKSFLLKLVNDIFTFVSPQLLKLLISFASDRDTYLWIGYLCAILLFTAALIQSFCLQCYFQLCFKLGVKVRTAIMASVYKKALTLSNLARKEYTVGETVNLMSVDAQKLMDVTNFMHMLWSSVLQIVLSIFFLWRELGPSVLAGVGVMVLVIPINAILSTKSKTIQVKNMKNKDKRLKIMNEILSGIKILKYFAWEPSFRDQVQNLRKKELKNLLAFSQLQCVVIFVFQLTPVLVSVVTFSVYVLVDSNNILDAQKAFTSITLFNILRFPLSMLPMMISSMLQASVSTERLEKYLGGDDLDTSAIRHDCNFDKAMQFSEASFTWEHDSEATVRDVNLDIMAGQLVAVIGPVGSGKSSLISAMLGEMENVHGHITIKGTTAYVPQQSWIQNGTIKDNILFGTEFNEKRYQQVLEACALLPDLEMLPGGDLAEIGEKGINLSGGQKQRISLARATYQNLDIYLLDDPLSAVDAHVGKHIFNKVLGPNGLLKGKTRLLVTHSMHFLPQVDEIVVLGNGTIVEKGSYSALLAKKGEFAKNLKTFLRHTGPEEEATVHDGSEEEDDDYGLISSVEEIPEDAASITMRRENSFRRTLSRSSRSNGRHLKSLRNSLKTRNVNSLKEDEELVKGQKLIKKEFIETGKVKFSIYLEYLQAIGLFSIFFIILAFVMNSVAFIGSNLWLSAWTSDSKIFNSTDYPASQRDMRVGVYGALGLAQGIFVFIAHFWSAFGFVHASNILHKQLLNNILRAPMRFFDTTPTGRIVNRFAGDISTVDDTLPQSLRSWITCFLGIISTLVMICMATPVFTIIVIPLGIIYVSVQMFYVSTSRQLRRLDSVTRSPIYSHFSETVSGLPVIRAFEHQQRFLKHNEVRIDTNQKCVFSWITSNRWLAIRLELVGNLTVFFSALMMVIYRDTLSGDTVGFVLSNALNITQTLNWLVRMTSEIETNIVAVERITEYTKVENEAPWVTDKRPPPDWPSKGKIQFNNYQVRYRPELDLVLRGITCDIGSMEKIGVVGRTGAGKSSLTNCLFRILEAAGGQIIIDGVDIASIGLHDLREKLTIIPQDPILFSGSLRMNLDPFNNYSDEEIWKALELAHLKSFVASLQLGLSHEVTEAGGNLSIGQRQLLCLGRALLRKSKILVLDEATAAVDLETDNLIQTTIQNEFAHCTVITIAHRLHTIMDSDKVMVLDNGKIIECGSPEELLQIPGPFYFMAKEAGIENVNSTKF

Legend:
UGT1A9/2B7 = conditions: 96 h treatment, 100 μM substrate, 30 min
UGT1A1/1A3 = conditions: 96 h treatment, 100 μM substrate, 30 min
MRP2 = MRP2 (Homo sapiens, UniProt Q92887); conditions: membrane vesicles

C[C@]12C=CC(=O)C=C1CC[C@@H]1[C@@H]2[C@@H](O)C[C@@]2(C)[C@H]1CC[C@]2(O)C(=O)CO [prednisolone]
4-trifluoromethyl-7-hydroxycoumarin glucuronidation activity, % of NC (Mean) (UGT1A9/2B7; 0.5 μM): 139 % of NC | 4-trifluoromethyl-7-hydroxycoumarin glucuronidation activity, % of NC (Mean) (UGT1A9/2B7; 1 μM): 157 % of NC | 4-trifluoromethyl-7-hydroxycoumarin glucuronidation activity, % of NC (Mean) (UGT1A9/2B7; 5 μM): 154 % of NC | 4-trifluoromethyl-7-hydroxycoumarin glucuronidation activity, % of NC (Mean) (UGT1A9/2B7; 10 μM): 154 % of NC | 4-trifluoromethyl-7-hydroxycoumarin glucuronidation activity, % of NC (Mean) (UGT1A9/2B7; 50 μM): 173 % of NC | 4-trifluoromethyl-7-hydroxycoumarin glucuronidation activity, % of NC (Mean) (UGT1A9/2B7; 100 μM): 155 % of NC | β-estradiol glucuronidation activity, % of NC (Mean) (UGT1A1/1A3; 0.5 μM): 119 % of NC | β-estradiol glucuronidation activity, % of NC (Mean) (UGT1A1/1A3; 1 μM): 122 % of NC | β-estradiol glucuronidation activity, % of NC (Mean) (UGT1A1/1A3; 5 μM): 124 % of NC | β-estradiol glucuronidation activity, % of NC (Mean) (UGT1A1/1A3; 10 μM): 123 % of NC | β-estradiol glucuronidation activity, % of NC (Mean) (UGT1A1/1A3; 50 μM): 140 % of NC | β-estradiol glucuronidation activity, % of NC (Mean) (UGT1A1/1A3; 100 μM): 134 % of NC | inhibition of MRP2-mediated MPAG uptake (in words) (MRP2): not detected

Like-named read-outs stand apart in the source and are kept apart here.
